What is called Ki is a measure of affinity in units of concentration, obtained from inhibition or displacement. Read a high Ki as weaker binding.

Experimental findings from ChEMBL document CHEMBL3046823, “Insect muscarinic acetylcholine receptor: pharmacological and toxicological profiles of antagonists and agonists” (J Agric Food Chem, 2007) are described below.

For assay [1], the target named is T1, Muscarinic acetylcholine receptor DM1 (Drosophila melanogaster, UniProt P16395). In words: Displacement of [3H]QNB from Drosophila melanogaster mAChR by scintillation counting. In general terms: Displacement assays read how much labelled ligand stays bound in the presence of the test substance.
Assay [2] deals with T1, Muscarinic acetylcholine receptor DM1. The assay is described as follows: Displacement of [3H]AF-DX 384 from Drosophila melanogaster mAChR by scintillation counting.

As to `Br.CN1[C@@H]2C[C@@H](OC(=O)[C@H](CO)c3ccccc3)C[C@H]1[C@@H]1O[C@@H]12.O.O.O` [SCOPOLAMINE HYDROBROMIDE], the figures for the Ki in assay [1] and in assay [2] were 1100 pM and 700 pM, respectively.
